In the test the target is BRD4-BD1 (Homo sapiens, UniProt O60885). The test can be described thus: BRD4-H4 tetraacetylated peptide inhibition AlphaScreen. Particulars: read-out: BRD4-BD1 IC50; 15 nM GST-BRD4-BD1 (aa 44-168), 15 nM biotinylated Acetyl-Histone H4 (Lys5, 8, 12, 16) peptide, 30 min at RT.

Structures are written as SMILES.

On to `Cc1cc(-c2nc3cc4c(nc3n2[C@@H](C)c2ccccc2)N(C)C(=O)C4(C)C)cn(C)c1=O`, for which the concentration for half-maximal inhibition (IC50) is 48 nM.

For the origin of these results see patent US9428515B2, “Benzimidazole derivatives” (Boehringer Ingelheim International GmbH, priority 2014, dated 2016).
